Laboratory results from PubChem BioAssay AID602247 (The Scripps Research Institute Molecular Screening Center, 2012).
This is a selection; strong and weak results do not stand in their true shares. Calls of active or inactive are those of the source.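 Rule for the calls: active = activation above the run cutoff, the mean activation of all test compounds plus 3 SD (cut at about 40% in these data); inactive = the rest.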

Test: nonselective calcium activators in parental CHO-K1 cells, primary screen, counter-screen for M1 PAM project, cell-based, Fluo-8 calcium fluorescence, full deck, 1536-well (AID 602247);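 note: peak over basal fluorescence ratio in a 140 s read after ATP addition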
Conditions: parental CHO-K1, ATP EC20, Fluo-8 calcium fluorescence; at 3 µM; hits give high values; 0% at ATP EC20, 100% at ATP max

| Compound | activation |
| --- | --- |
| CCC1=CC2Cc3nc4ccc(Cl)cc4c(N)c3C(C1)C2 (centres undefined) | inactive: 25.3% |
| O=P1(Nc2ccccn2)COc2ccccc2OC1 | inactive: 12% |
| CCOP(=O)(NC(=NC(C)c1ccccc1)NC(C)c1ccccc1)OCC (centres undefined) | inactive: 6.69% |
| CN(CCCl)Cc1cc(Cl)c(NC2=NCCN2)c(Cl)c1 | inactive: 16.7% |
| CCOP(=O)(Nc1ccc(C)cn1)OCC | inactive: 4.91% |
| Clc1n[nH]nc1-c1nn[nH][15n]1 | inactive: -7.66% |
| O=P1(N(CCCl)CCCl)NCCC(C(F)(F)F)O1 (centres undefined) | inactive: 35.5% |
| CC(C)(C)C(=O)NC(Sc1ncccn1)C(Cl)(Cl)Cl (centres undefined) | inactive: -8.9% |
| COc1ccccc1CNC(=O)COC(=O)C(O)(c1ccccc1)c1ccccc1 | inactive: 10.7% |
| CN(C(=O)Cc1ccc(Cl)c(Cl)c1)[C@@H]1CCCC[C@H]1N1CCCC1 | inactive: -4.22% |
| CC(C)/C=N\N=C(\N)N[N+](=O)[O-] | inactive: 9.41% |
| CC1(CBr)Cn2c(nc3ccccc3c2=O)S1 (centres undefined) | inactive: 5.16% |
| Cc1nn(-c2ccccc2)c2c1P(=O)(N1CCOCC1)N(C)C(c1ccccc1)=N2 (centres undefined) | inactive: -1.93% |
| Cc1ccc(C(=O)OC2CN3CCC2CC3)cc1 (centres undefined) | inactive: 0.08% |
| CC1CCC(C(C)C)C(OP(=O)(Nc2ccccn2)c2ccccc2)C1 (centres undefined) | inactive: 4.43% |
| O=C(/C=C/c1ccccc1)OC1CN2CCC1CC2 (centres undefined) | inactive: 25.9% |
| CCCC1OP(=O)(Nc2ccccc2)OCC1CC (centres undefined) | inactive: 19.3% |
| Cc1ccc(S(=O)(=O)N(CCCN)CCCc2c(C)nc(N)[nH]c2=O)cc1 | inactive: 16% |
| O=P1(Nc2ncccn2)COc2ccccc2OC1 | inactive: 12.1% |
| Nc1cccc([As](=O)(O)c2ccccc2)c1 | inactive: 3.63% |
| NS(=O)(=O)c1cccc(NC(=O)COC(=O)C(O)(c2ccccc2)c2ccccc2)c1 | inactive: -8.09% |
| O=P1(Nc2ccc(Br)cn2)COc2ccccc2OC1 | inactive: 20.2% |
| Cc1ccc(OCC(=O)OC2CN3CCC2CC3)cc1 (centres undefined) | inactive: 25.3% |
| O=[As](O)(c1cccs1)c1cccs1 | inactive: -2.05% |
| CCOP1(=S)c2c(C)nn(CCC#N)c2N=C(c2ccccc2F)N1C (centres undefined) | inactive: 13.8% |

| Compound | activation |
| --- | --- |
| O=P(Nc1nccs1)(c1ccccc1)c1nc2ccccc2s1 (centres undefined) | inactive: 14.3% |
| O=P(Nc1nccs1)(Oc1ccccc1)Oc1ccccc1 | inactive: 5.69% |
| CS(=O)(=O)c1cc([N+](=O)[O-])c2no[n+]([O-])c2c1 | inactive: 17.2% |
| O=C(O)COc1ccc([As](=O)(O)O)cc1[N+](=O)[O-] | inactive: -1.64% |
| Nc1ccccc1[As](=O)(O)c1ccccc1 | inactive: 2.71% |
| NC(=O)Nc1ccc([As](=O)(O)O)cc1 | inactive: 11.4% |
| N#CCCN(C(=O)COC(=O)C(O)(c1ccccc1)c1ccccc1)c1ccc(F)cc1 | inactive: -16.9% |
| CN(C(=O)Cc1ccccc1)[C@@H]1CC[C@]2(CCCO2)C[C@H]1N1CCCC1 | inactive: 22.8% |
| CCOP1(=S)c2c(C)nn(CCC#N)c2N=C(c2ccc(F)cc2)N1C (centres undefined) | inactive: -11.8% |
| CN(C)C(=O)c1cc([N+](=O)[O-])cc2c1-c1c(cc([N+](=O)[O-])cc1[N+](=O)[O-])C2=O | inactive: -10.8% |
| O=[N+]([O-])c1ccc2c(c1)nnn2O | inactive: 20.9% |
| CN(C(=O)Cc1ccc(Cl)c(Cl)c1)[C@H]1CC[C@@]2(CCCO2)C[C@@H]1N1CCCC1 | inactive: 15.7% |
| O=C(OC1CN2CCC1CC2)c1ccc(Cl)cc1 (centres undefined) | inactive: 1.8% |
| O=[As](O)(O)c1cccnc1 | inactive: 10.9% |
| CS(=O)(=O)c1ccc(Cl)c(NC(=O)COC(=O)C(O)(c2ccccc2)c2ccccc2)c1 | inactive: -7.74% |
| O=[As](O)(c1cccc(O)c1)c1cccc(O)c1 | inactive: -1.89% |
| Cc1cccc(OCC(=O)OC2CN3CCC2CC3)c1 (centres undefined) | inactive: 21.6% |
| Cc1ccc(NCCc2c([N+](=O)[O-])cc([N+](=O)[O-])cc2[N+](=O)[O-])cc1 | inactive: 20.8% |
| Nc1cccc2c([As](=O)(O)O)cccc12 | inactive: 1.58% |
| CCCOP(=S)(Nc1nc(N)cc(=O)[nH]1)OCCC | inactive: 11.1% |
| C[C@H]1C(=O)O[C@@H]2CCN3CC=C(COC(=O)[C@](C)(O)[C@]1(C)O)[C@H]23 | inactive: 22.1% |
| COc1cc(C2NCCC3(OCCO3)C2(C)C)cc(OC)c1OC (centres undefined) | inactive: 8.71% |
| CCOP(=O)(Nc1cccc2ccccc12)OCC | inactive: 16.3% |
| Cc1c2c(nc3ccccc13)SC(C(Cl)Cl)C2 (centres undefined) | inactive: 12.9% |
